Tests used:
Conditions in all cases: 5 nM-5 μM, 72 h, n=3
[1] = system: MHH-ES-1 (Ewing's sarcoma)
[2] = system: MV411 AML cells; assay: Cell viability, MV411 AML cells; format: cell-based
[3] = system: MOLM14 AML cells; assay: Cell viability, MOLM14 AML cells; format: cell-based

Compound: Cc1ccccc1CN1C(=O)C2=C(CCN(Cc3ccccc3)C2)N2CCN=C12
- IC50 [1]: 5.65 µM
- IC50 [2]: 3.25 µM
- IC50 [3]: 3.92 µM
